Reference: PMC3517300 (Journal of neurochemistry, 2012)
Like-named read-outs stand apart in the source and are kept apart here.

By UniProt entry, the sequences of proteins in these tests, tags left out.
UniProt Q01959, whole entry: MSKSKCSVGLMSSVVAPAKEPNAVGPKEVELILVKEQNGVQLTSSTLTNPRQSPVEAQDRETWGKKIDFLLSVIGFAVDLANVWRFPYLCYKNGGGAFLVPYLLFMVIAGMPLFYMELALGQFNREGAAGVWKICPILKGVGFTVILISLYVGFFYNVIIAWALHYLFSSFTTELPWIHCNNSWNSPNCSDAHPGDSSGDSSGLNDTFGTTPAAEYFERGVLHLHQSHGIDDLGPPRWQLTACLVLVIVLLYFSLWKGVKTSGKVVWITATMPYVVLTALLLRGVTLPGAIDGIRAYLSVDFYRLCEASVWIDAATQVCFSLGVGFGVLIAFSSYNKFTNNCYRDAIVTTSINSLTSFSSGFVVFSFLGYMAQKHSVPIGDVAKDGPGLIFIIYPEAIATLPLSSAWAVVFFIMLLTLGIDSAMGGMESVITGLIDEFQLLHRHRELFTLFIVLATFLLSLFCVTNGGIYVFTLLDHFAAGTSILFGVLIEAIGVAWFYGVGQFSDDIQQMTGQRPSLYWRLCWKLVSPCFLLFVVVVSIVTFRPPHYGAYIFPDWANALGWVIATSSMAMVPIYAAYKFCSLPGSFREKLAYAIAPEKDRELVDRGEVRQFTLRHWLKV
UniProt Q01959, whole entry W84L: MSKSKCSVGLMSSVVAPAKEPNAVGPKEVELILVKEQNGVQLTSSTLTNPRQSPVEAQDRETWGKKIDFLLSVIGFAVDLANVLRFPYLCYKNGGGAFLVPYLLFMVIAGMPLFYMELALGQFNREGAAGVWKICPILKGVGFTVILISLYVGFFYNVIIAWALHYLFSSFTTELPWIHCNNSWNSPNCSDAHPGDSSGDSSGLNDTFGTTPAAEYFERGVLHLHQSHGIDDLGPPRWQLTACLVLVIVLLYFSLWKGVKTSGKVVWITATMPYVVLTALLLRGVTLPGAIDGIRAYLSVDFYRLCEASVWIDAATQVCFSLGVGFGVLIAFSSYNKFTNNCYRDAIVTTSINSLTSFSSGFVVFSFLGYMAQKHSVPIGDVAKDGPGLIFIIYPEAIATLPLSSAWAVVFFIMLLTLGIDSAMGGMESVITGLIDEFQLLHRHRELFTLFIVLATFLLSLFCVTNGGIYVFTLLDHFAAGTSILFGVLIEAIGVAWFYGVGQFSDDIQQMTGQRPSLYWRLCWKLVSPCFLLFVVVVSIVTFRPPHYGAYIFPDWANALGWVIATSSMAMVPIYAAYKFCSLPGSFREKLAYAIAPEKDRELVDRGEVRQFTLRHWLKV

Key:
[1] = molecular target: human dopamine transporter (DAT WT) (Homo sapiens, UniProt Q01959); assay: [^3H]CFT binding in intact HEK 293-hDAT cells
W84L DAT mutant = W84L DAT mutant (Homo sapiens, UniProt Q01959, W84L); assay: [^3H]CFT binding in intact HEK 293 cells expressing W84L DAT; conditions: W84L hDAT

## (–)-2-β-carbomethoxy-3-β-(4-fluorophenyl)tropane [CFT]
[1]; 5.0 mM mβCD then 200 µM CHOL 2 hrs
  [^3H]CFT Binding Bmax: 3.98 ± 0.62 pmol/mg
[1]; cells pretreated 5.0 mM mβCD 30 min 37°C
  [^3H]CFT Binding Bmax: 3.07 ± 0.57 pmol/mg
[1]; read-out: [^3H]CFT Binding Kd, 5.0 mM mβCD then 200 µM CHOL 2 hrs
  Kd: 14.6 ± 2.07 nM
[1]; read-out: [^3H]CFT Binding Kd, cells pretreated 5.0 mM mβCD 30 min 37°C
  Kd: 17.8 ± 2.17 nM
[1]; read-out: [^3H]CFT Binding Kd, vehicle (control), 15 min, 25°C
  Kd: 15.6 ± 1.97 nM
[1]; vehicle (control), 15 min, 25°C
  [^3H]CFT Binding Bmax: 3.68 ± 0.46 pmol/mg
W84L DAT mutant; cells pretreated 2.5 mM mβCD 30 min 37°C
  [^3H]CFT Binding Bmax: 4.42 ± 0.73 pmol/mg
W84L DAT mutant; vehicle
  [^3H]CFT Binding Bmax: 4.77 ± 0.85 pmol/mg
W84L DAT mutant; read-out: [^3H]CFT Binding Kd, vehicle
  Kd: 2.58 ± 0.46 nM
